Molecular target: Acetylcholine-binding protein (Lymnaea stagnalis, UniProt P58154)
Experiment: Binding affinity to freshwater snail Lymnaea stagnalis AChBP assessed as [3H]EPI binding by radioligand binding assay

Protein sequences, listed by entry. Tags and fused reporters are not part of them.
UniProt P58154, whole entry: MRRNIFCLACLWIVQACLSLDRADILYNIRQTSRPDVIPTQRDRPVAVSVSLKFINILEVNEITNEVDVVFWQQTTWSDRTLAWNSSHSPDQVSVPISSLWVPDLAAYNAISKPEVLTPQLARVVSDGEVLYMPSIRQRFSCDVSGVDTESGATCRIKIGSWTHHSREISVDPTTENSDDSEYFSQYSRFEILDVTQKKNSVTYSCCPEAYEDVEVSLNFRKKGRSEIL

CN1CCC[C@H]1c1cccnc1 [NICOTINE]
Ki: 100 nM

From ChEMBL document CHEMBL3045824, “Unique neonicotinoid binding conformations conferring selective receptor interactions” (J Agric Food Chem, 2011)
